Source: ChEMBL document CHEMBL5725956, “Piperazine derivatives as liver X receptor modulators” (2018)

Chains of the proteins cited; added tags and fusions are not shown.
UniProt P55055, whole entry, looked up: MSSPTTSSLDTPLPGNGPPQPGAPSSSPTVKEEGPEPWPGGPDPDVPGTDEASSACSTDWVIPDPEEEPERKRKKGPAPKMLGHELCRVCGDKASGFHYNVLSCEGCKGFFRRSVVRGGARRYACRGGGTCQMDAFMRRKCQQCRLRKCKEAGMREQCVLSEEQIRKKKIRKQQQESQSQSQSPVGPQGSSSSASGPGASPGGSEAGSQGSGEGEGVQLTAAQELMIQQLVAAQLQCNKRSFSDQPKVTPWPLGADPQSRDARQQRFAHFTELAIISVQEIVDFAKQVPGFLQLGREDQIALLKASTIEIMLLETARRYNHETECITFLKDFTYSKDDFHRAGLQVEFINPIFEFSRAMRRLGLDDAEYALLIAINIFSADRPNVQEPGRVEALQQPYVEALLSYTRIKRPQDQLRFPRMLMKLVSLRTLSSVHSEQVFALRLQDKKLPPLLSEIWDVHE

Biological target: Oxysterols receptor LXR-beta (Homo sapiens, UniProt P55055)

Row | Structure (SMILES) | Ki [nM]
1 | CC(C)[C@@H]1CN(c2ccc(F)c(S(C)(=O)=O)c2)CCN1C(=O)OC(C)(C)C(F)(F)F | 15
2 | CC(C)[C@@H]1CN(c2ccc(F)c(S(C)(=O)=O)c2)CCN1C(=O)OC1CC(F)(F)C1(F)F (stereo partly drawn) | 54
3 | CC(C)[C@@H]1CN(c2ccc(F)c(S(C)(=O)=O)c2)CCN1C(=O)OC(C)C(F)(F)F (stereo partly drawn) | 38
